Data reported in ChEMBL document CHEMBL4118270, “Synthesis, in vitro and in silico studies of novel potent urease inhibitors: N-[4-({5-[(3-Un/substituted-anilino-3-oxopropyl)sulfanyl]-1,3,4-oxadiazol-2-yl}methyl)-1,3-thiazol-2-yl]benzamides” (Bioorg Med Chem, 2018).

Target: Urease (Helicobacter pylori) (UniProt Q0PXQ5)
Experiment: Inhibition of Campylobacter pylori urease preincubated for 5 mins followed by urea addition measured after 10 mins by Berthelot assay relative to control
Design: concentration or dose not given beside the values

NC(N)=S [THIOUREA]
inhibition: 98.1%
